Test results taken from PubChem BioAssay (NCI).
The list shows a part of the results, in another mix than the full data.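 Cell lines were cultured in 96-well plates, exposed to a single compound concentration, and assessed for percent growth 48 hours later.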 Calls of active or inactive are those of the source. The calls were made as follows: active = growth percent below 10; inactive = the rest.

Legend:
Experiment in all cases: NCI-60 one-dose screen, 48 h (100 = growth as untreated, 0 = no growth, -100 = all killed)
Settings in all cases: 10 µM unless noted
[1] = system: NCI-H23 lung
[2] = system: NCI-H226 lung
[3] = system: NCI-H322M lung
[4] = system: HOP-62 NSCLC
[5] = system: NCI-H460 lung
[6] = system: HOP-92 NSCLC
[7] = system: A549/ATCC NSCLC
[8] = system: 786-0 renal
[9] = system: COLO 205 colon
[10] = system: DU-145 prostate
[11] = system: K-562 leukemia
[12] = system: MALME-3M melanoma
[13] = system: MDA-MB-231 breast
[14] = system: RXF 393 renal
[15] = system: SF-268 CNS
[16] = system: SF-295 CNS
[17] = system: SF-539 CNS
[18] = system: UACC-257 melanoma
[19] = system: M14 melanoma
[20] = system: NCI-H522 lung

Measured: growth

O=[As](O)(c1ccccc1Br)c1ccccc1Br
inactive: [1] 108% | [2] 101% | [3] 124% | [4] 96.5% | [5] 111% | [6] 86.6% | [7] 104% | [8] 111% | [9] 97.6% | [10] 99.3% | [11] 109% | [12] 130% | [13] 91% | [14] 112% | [15] 91.5% | [16] 109% | [17] 92.6% | [18] 105% | [19] 97.9%

CCCCOP(OCCCC)OCCCC
inactive: [1] 103% | [2] 102% | [3] 118% | [4] 104% | [5] 111% | [6] 130% | [20] 88.1% | [7] 115% | [8] 101% | [9] 120% | [10] 119% | [11] 107% | [13] 119% | [14] 105% | [15] 116% | [17] 102% | [18] 109% | [19] 99.8%

Cc1ccc(S(=O)(=O)CN(CCCl)CCCl)cc1
inactive: [1] 104% | [2] 107% | [3] 96.1% | [4] 98.9% | [5] 107% | [6] 107% | [20] 108% | [7] 96% | [8] 107% | [9] 106% | [10] 110% | [11] 104% | [12] 106% | [13] 116% | [15] 102% | [16] 94.4% | [17] 103% | [18] 110% | [19] 108%

CCOP(=S)(OCC)SCCCl
inactive: [1] 100% | [2] 104% | [3] 108% | [4] 104% | [5] 108% | [6] 101% | [20] 88.5% | [7] 99% | [8] 101% | [9] 118% | [10] 105% | [11] 102% | [12] 112% | [13] 100% | [15] 105% | [16] 87.1% | [17] 99.9% | [18] 88.6% | [19] 102%

CCCCCCCCCCNP(=S)(Cl)Cl
inactive: [1] 95.8% | [2] 95.8% | [3] 99.8% | [4] 102% | [5] 100% | [6] 95.5% | [20] 94.2% | [7] 97.9% | [8] 101% | [9] 110% | [10] 113% | [11] 92.9% | [12] 106% | [13] 98.8% | [15] 105% | [16] 97.4% | [17] 98.5% | [18] 97.1% | [19] 102%

[N-]=[N+]=NS(=O)(=O)c1ccc([N+](=O)[O-])cc1
inactive: [1] 103% | [2] 95.9% | [3] 106% | [4] 121% | [5] 108% | [6] 75.7% | [20] 96.4% | [7] 96.7% | [8] 98.8% | [9] 131% | [10] 103% | [11] 98.1% | [13] 101% | [14] 103% | [15] 98.4% | [16] 97.2% | [17] 102% | [18] 104% | [19] 107%

COc1ccc([As](=O)(O)O)cc1
inactive: [1] 113% | [2] 96.6% | [3] 115% | [4] 113% | [5] 116% | [6] 103% | [7] 102% | [8] 102% | [9] 116% | [10] 118% | [11] 106% | [12] 112% | [13] 113% | [14] 101% | [15] 109% | [17] 95.7% | [18] 98.8% | [19] 102%

NC(=O)c1[nH]cnc1/N=N\N(CCCl)CCCl
inactive: [1] 102% | [2] 100% | [3] 148% | [4] 99.9% | [5] 105% | [6] 94.5% | [20] 97.9% | [7] 104% | [8] 97.4% | [9] 111% | [10] 126% | [11] 112% | [12] 140% | [13] 108% | [15] 117% | [16] 133% | [17] 99.9% | [18] 103% | [19] 103%

CCOP(=S)(OCC)OCC
inactive: [1] 100% | [2] 105% | [3] 111% | [4] 97.5% | [5] 111% | [6] 97.9% | [20] 98.7% | [7] 107% | [8] 101% | [9] 113% | [10] 108% | [11] 124% | [13] 134% | [14] 106% | [15] 113% | [17] 98.7% | [18] 107% | [19] 106%

O=P1(N(CCCl)CCCl)OCCC2CCCCN21 (stereo not given)
inactive: [1] 110% | [2] 106% | [3] 94.8% | [4] 103% | [5] 110% | [6] 92.9% | [20] 98.4% | [7] 102% | [8] 102% | [9] 107% | [10] 115% | [11] 98% | [13] 107% | [14] 114% | [15] 103% | [16] 110% | [17] 103% | [18] 103% | [19] 97.7%

O=C(O)CCc1ccc(N(CCCl)CCCl)cc1
inactive: [1] 96.4% | [2] 97.4% | [3] 103% | [4] 96.5% | [5] 88.7% | [6] 90% | [20] 84.8% | [7] 97.3% | [8] 107% | [9] 106% | [10] 103% | [11] 105% | [12] 101% | [13] 112% | [14] 109% | [16] 101% | [17] 87.2% | [18] 103% | [19] 103%

Cc1c([N+](=O)[O-])cc(C(=O)c2cc([N+](=O)[O-])cc([N+](=O)[O-])c2)cc1[N+](=O)[O-]
inactive: [1] 90.9% | [2] 101% | [3] 102% | [4] 114% | [5] 99.2% | [6] 109% | [20] 88.3% | [7] 99.1% | [8] 114% | [9] 90.7% | [10] 99.2% | [11] 83.3% | [12] 70.4% | [13] 92.6% | [15] 105% | [16] 109% | [17] 105% | [18] 89.3% | [19] 97.8%

C=CCOP(O)OCC=C
inactive: [1] 105% | [2] 105% | [3] 99.7% | [4] 102% | [5] 105% | [6] 93.5% | [20] 91.7% | [7] 101% | [8] 105% | [9] 110% | [10] 107% | [11] 107% | [12] 97.4% | [14] 105% | [15] 106% | [16] 102% | [17] 98.1% | [18] 103% | [19] 99.9%

O=C(c1ccc(F)cc1)N(CCCl)CCCl
inactive: [1] 98.1% | [2] 99.1% | [3] 111% | [4] 114% | [5] 107% | [6] 107% | [20] 87.6% | [7] 101% | [8] 98.7% | [9] 121% | [10] 109% | [11] 114% | [12] 106% | [13] 110% | [14] 91.7% | [15] 106% | [17] 95.8% | [18] 95% | [19] 110%

CCOP(=O)(Nc1ccccc1)OCC
inactive: [1] 105% | [2] 90.2% | [3] 103% | [4] 90.6% | [5] 107% | [6] 85.4% | [7] 94% | [8] 105% | [9] 112% | [10] 115% | [11] 99.6% | [12] 104% | [13] 101% | [14] 101% | [15] 101% | [16] 127% | [17] 106% | [18] 86.5% | [19] 101%

CN(C)P(=O)(N(C)C)n1c(Nc2ccccc2)nnc1-c1ccccc1
inactive: [1] 89.4% | [2] 87.9% | [3] 95.2% | [4] 105% | [5] 106% | [6] 80.9% | [20] 106% | [7] 87.1% | [8] 99.5% | [9] 85.4% | [10] 106% | [11] 128% | [12] 103% | [13] 83.8% | [14] 108% | [15] 101% | [17] 95.4% | [18] 99% | [19] 103%

ClC(Cl)(Cl)C1SCCS1
inactive: [1] 101% | [2] 109% | [3] 96.8% | [4] 115% | [5] 110% | [20] 105% | [7] 97.5% | [8] 109% | [9] 109% | [10] 108% | [11] 80.6% | [12] 108% | [13] 101% | [14] 129% | [15] 109% | [16] 96.9% | [17] 116% | [18] 86.4% | [19] 109%
